Assay results as given in ChEMBL document CHEMBL5537183, “Discovery, Optimization, and Biological Evaluation of Arylpyridones as Cbl-b Inhibitors” (J Med Chem, 2024).

Chains of the proteins cited; added tags and fusions are not shown.
UniProt Q13191, whole entry: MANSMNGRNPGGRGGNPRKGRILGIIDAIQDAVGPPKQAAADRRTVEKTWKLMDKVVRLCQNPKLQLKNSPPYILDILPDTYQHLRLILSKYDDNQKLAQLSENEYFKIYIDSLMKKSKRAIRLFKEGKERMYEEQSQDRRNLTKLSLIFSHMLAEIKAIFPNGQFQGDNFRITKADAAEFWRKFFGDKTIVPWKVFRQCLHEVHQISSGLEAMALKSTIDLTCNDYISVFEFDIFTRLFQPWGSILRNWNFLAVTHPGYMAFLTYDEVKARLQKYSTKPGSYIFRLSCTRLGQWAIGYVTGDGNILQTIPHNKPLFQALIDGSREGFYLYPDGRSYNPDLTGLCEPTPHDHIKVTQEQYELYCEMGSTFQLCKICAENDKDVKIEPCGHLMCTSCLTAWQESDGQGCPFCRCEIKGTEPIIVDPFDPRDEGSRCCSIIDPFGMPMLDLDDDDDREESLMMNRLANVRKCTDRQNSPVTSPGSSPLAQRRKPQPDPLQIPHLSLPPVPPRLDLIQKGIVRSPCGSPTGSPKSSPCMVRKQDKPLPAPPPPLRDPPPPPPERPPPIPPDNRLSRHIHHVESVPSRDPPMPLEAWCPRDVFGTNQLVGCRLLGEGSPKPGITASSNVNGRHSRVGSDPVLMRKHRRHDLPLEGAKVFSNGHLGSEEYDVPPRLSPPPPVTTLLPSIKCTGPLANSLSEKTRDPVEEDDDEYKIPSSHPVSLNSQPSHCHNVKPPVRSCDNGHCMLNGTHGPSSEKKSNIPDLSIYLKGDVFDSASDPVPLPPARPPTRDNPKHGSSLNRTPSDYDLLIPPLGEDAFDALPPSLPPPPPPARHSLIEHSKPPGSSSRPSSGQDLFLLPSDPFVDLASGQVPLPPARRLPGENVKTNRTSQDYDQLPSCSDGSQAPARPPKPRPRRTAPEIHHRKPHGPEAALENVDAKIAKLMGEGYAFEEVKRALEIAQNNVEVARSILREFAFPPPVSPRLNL

How the values were obtained:
[1] = target: T1, E3 ubiquitin-protein ligase CBL-B (Homo sapiens, UniProt Q13191); test: Inhibition of biotinylated recombinant Cbl-b (36 to 427 residues)(unknown origin) expressed in Escherichia coli BL21(DE3) Tuner cells assessed as decrease in ZAP70 ubiquitination incubated for 60 mins in presence of Ub-FITC/ATP by TR-FRET assay
[2] = target: T1, E3 ubiquitin-protein ligase CBL-B; test: Inhibition of biotinylated recombinant Cbl-b (36 to 427 residues)(unknown origin) expressed in Escherichia coli BL21(DE3) Tuner cells assessed as decrease in Cbl-b auto-ubiquitination incubated for 60 mins in presence of Ub-FITC/ATP by TR-FRET assay
[3] = target: T1, E3 ubiquitin-protein ligase CBL-B
[4] = target: T1, E3 ubiquitin-protein ligase CBL-B; test: Inhibition of biotinylated recombinant Cbl-b (36 to 427 residues)(unknown origin) expressed in Escherichia coli BL21(DE3) Tuner cells using a FAM-labeled probe by TR-FRET assay

Structure (SMILES): C[C@@H](c1cnn(C)c1)n1cc(C(F)(F)F)cc(-c2cccc([C@]3(c4nncn4C)C[C@@H](C)C3)c2)c1=O
- IC50 [1]: 0.0841 µM
- IC50 [2]: 0.0634 µM
- EC50 [3]: 0.61 µM

Structure (SMILES): C[C@H](c1cnn(C)c1)n1cc(C(F)(F)F)cc(-c2cccc([C@]3(c4nncn4C)C[C@@H](C)C3)c2)c1=O
- IC50 [1]: 0.135 µM
- IC50 [2]: 0.119 µM
- IC50 [4]: 0.04 µM
- EC50 [3]: 0.76 µM
